Experimental data as given in PubChem BioAssay AID652104 (National Center for Advancing Translational Sciences (NCATS), 2013).
The campaign covered roughly 410,000 compounds. About 7,200 (1.8%) were called active. These results got no clear call from the source, so the numbers are uncertain. The call rests on the fitted dose curve; in most records, active means well fitted activation curve with a large enough effect; inconclusive means small, poorly fitted or top-dose-only effect, or another doubt; inactive means no such curve, though single readings can be large or run the other way.

Assay: qHTS of TDP-43 Inhibitors; further: nearly all actives have a fitted effect of over 50% in size
Settings: TDP-43 expressing yeast growth rescue, BacTiter-Glo, 24 h
Potency means the concentration at half of the fitted maximal effect.

Compound	Potency
Clc1ccc(Cl)c(NC2=NCC(CBr)S2)c1 (stereo unspecified)	inconclusive: 2.51 µM
CN(C)P(=O)(N(C)C)n1c(Nc2ccccc2)nnc1-c1ccccc1	inconclusive: 25.1 µM
CC1CCN(C(=O)Oc2c(Cl)cc(Cl)c3cccnc23)CC1	inconclusive: 20 µM
CC(=O)NC(SC(=S)N(C)C)C(Cl)(Cl)Cl (stereo unspecified)	inconclusive: 35.5 µM
O=[N+]([O-])c1ccc(O)c(/C=N/Nc2ccc([N+](=O)[O-])cc2[N+](=O)[O-])c1	inconclusive: 5.62 µM
Nc1ccc(CCCCOc2ccccc2)cc1	inconclusive: 5.62 µM
CSc1ccc(Nc2c([N+](=O)[O-])cc([N+](=O)[O-])cc2[N+](=O)[O-])cc1	inconclusive: 35.5 µM
O=C(Nc1ccncc1[N+](=O)[O-])c1ccc([N+](=O)[O-])cc1[N+](=O)[O-]	inconclusive: 17.8 µM
Cc1cc(SC(NC(=O)c2ccccc2)C(Cl)(Cl)Cl)nc(C(C)C)n1 (stereo unspecified)	inconclusive: 12.6 µM
[N-]=[N+]=NC1CCCCC1NC(=O)c1cc([N+](=O)[O-])cc([N+](=O)[O-])c1 (stereo unspecified)	inconclusive: 35.5 µM
Cc1c2c(nc3ccccc13)SC(C(Cl)Cl)C2 (stereo unspecified)	inconclusive: 11.2 µM
